Values of other authors, collected in PMC8954214, “Preparation, Identification, Molecular Docking Study and Protective Function on HUVECs of Novel ACE Inhibitory Peptides from Protein Hydrolysate of Skipjack Tuna Muscle” (Marine Drugs, 2022).
≈ marks a conversion by molar mass, not a printed value.

Sequences of proteins named here, by UniProt entry; tags and fusion partners are left off. Residues count along the entry.
UniProt P12822, 34-1310 limits assumed: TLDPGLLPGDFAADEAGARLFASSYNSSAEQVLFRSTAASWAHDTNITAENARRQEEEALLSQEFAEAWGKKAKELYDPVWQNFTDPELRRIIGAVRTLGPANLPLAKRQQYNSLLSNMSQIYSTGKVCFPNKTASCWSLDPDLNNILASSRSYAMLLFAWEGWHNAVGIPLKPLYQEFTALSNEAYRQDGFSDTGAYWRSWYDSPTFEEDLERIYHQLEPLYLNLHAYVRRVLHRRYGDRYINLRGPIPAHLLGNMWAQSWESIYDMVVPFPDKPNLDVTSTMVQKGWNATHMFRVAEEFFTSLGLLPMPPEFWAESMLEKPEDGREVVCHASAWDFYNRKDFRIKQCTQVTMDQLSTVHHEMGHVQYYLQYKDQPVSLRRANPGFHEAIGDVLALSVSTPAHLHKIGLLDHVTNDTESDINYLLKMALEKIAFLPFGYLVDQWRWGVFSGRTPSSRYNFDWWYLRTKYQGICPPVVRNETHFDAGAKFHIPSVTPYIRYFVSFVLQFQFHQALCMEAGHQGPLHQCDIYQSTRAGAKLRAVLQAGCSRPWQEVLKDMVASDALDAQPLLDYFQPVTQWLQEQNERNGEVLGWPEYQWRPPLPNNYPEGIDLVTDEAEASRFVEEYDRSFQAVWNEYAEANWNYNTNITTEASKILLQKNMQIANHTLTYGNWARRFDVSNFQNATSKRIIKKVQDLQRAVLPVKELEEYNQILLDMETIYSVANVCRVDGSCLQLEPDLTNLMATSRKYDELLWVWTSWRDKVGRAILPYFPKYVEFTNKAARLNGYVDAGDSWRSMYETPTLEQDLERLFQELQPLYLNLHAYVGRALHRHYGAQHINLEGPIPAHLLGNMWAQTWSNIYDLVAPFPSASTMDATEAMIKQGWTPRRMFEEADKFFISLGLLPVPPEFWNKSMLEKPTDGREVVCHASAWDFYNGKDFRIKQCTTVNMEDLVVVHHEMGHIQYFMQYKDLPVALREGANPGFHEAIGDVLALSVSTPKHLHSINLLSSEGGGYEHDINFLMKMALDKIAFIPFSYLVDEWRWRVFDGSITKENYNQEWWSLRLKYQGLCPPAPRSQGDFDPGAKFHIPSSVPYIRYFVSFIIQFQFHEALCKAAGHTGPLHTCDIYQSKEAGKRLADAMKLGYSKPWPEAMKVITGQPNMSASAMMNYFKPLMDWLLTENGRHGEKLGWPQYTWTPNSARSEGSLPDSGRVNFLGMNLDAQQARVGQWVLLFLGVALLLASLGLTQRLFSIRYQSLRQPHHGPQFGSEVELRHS

Assays:
[1] = target: ACE (Oryctolagus cuniculus, UniProt P12822); settings: Antarctic krill peptides; cited from earlier work
[2] = system: ET-1; settings: from Antarctic krill; cited from earlier work
[3] = system: HUVECs; settings: cited from earlier work

SMILES | IC50 [1] [µg/mL] | ET-1 content [2] | NO production of HUVEC [3]
C[C@H](NC(=O)[C@@H](N)Cc1ccc(O)cc1)C(=O)N[C@@H](CCCCN)C(=O)O | 1260 (≈ 3310 µM) |  | 
N[C@@H](Cc1c[nH]c2ccccc12)C(=O)N[C@@H](Cc1ccccc1)C(=O)O | 320 (≈ 911 µM) | reducing ET-1 content | increasing the NO production
